Patent US20260384437A1, “1H-[1,2,3]TRIAZOLO[4,5-H]QUINAZOLINE COMPOUNDS AS PROTEIN KINASE INHIBITORS” (published 2026)

How the values were obtained:
[1] = test system: human ovarian cancer OVCAR-3 tumor; assay: OVCAR-3 tumor model; details: p.o. 5, 10, 15 mg/kg twice daily, 22 days; NOD-SCUD mice; FIG. 3
[2] = test system: human gastric cancer MKN1 tumor; assay: MKN1 tumor model; details: p.o. 10, 20, 30 mg/kg once daily, 22 days; BALB/c nude mice; FIG. 4

CC(C)n1nnc2ccc3cnc(Nc4ccc(C(=O)N5CC[C@H](N(C)C)C5)cc4)nc3c21
growth inhibitory effect on the OVCAR-3 tumor model [1]: showing a dose-dependent relationship
growth inhibitory effect on the MKN1 tumor model [2]: showing a dose-dependent relationship
